The target in this experiment is T1, Dimer of Gag-Pol polyprotein [489-587] (Human immunodeficiency virus 1, UniProt P12497).
T1 construct: 489-587
The experiment in a line: Protease Inhibition Assay. The note with it: pH 5.5; 30 °C. The protocol:
Sensitivity of HIV-1 protease activity to protease inhibitors was determined by a peptide substrate cleavage assay. Protease products were analyzed on a reverse-phase high-pressure liquid chromatograph.

On to `CC(C)(C)NC(=O)C1C[C@@H]2CCCC[C@@H]2CN1C[C@@H](O)[C@H](Cc1ccccc1)NC(=O)O[C@H]1CCOC1` (stereo partly drawn) [(3S)-oxolan-3-yl N-[(2S,3R)-4-[(4aS,8aS)-3-(tert-butylcarbamoyl)-decahydroisoquinolin-2-yl]-3-hydroxy-1-phenylbutan-2-yl]carbamate], for which the IC50 was found to be 160 nM.

For the origin of these results see BindingDB's records for doi:10.1021/jm00059a019 (Merck Research Laboratories, 1993).
